Results taken from ChEMBL document CHEMBL1125721, “Highly selective kappa opioid analgesics. 4. Synthesis of some conformationally restricted naphthalene derivatives with high receptor affinity and selectivity” (1991).

Chains of the proteins cited; added tags and fusions are not shown.
UniProt P97266, whole entry: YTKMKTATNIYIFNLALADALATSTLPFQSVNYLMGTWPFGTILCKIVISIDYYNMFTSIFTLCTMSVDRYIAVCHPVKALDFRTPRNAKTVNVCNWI

Molecular target: Mu-type opioid receptor (Cavia porcellus) (UniProt P97266)
Test: Ratio measured as the Ki(kappa) to that of Ki(mu) values.

SMILES: CN(C(=O)Cc1cccc2occc12)[C@H]1CCC2(CCCO2)C[C@@H]1N1CCCC1 (stereo partly specified)
- Ratio: 1520
